Source: patent publication US7456201B2, “Pharmaceutically active compounds and methods of use” (Laboratoires Serono SA, priority 2000, dated 2008)

Tested on: untransfected CHO parental cells
Assay: CHO parental cells assay (intracellular cAMP, RIA)
Assay type: cell-based, Chinese Hamster
Settings: 10^−7 (M) dose, previous experiment
Method: Briefly CHO parental cells were plated in 96 well packard view plates 5×10^4 cells/well in serum containing media. After 20 hours the cells were confluent. The wells were washed with serum free assay medium (containing 0.1 mM MIX) and pre-incubated for 15 minutes in this medium. Compound 1 and forskolin (positive control) were added and the cells were incubated for an additional one hour. The cells were lysed and intracellular cAMP was measured using the Amersham direct one step cAMP-RIA kit according to the manufacturers directions.

With “rhFSH: rhFSH, follicle stimulating hormone (FSH)” the “intracellular cAMP response over background” value was “no response over background”.
